Test [1] addresses human isoQC (Homo sapiens, UniProt Q9NXS2). Description: Kinetic evaluation of peptide substrates of human isoQC. The class given is biochemical. Also noted: The cDNA of the mature human isoQC starting with codon 30 (counting from methionine II); His6 (C-His) (C); yeast alpha-factor secretion signal (YSS) (N); made in house; host or cells: Pichia pastoris X-33. Conditions: human isoQC expressed in E. coli BL21 (hisoQCdt). How it is done:
(§1) Excitation/emission wavelengths were 320/410 nm.
(§2) Excitation/emission wavelengths were 380/460 nm.
(§3) Kinetic data were evaluated using GraFit software.

By UniProt entry, the sequences of proteins in these tests, tags left out. Residues count along the entry.
UniProt Q9NXS2, 48-382: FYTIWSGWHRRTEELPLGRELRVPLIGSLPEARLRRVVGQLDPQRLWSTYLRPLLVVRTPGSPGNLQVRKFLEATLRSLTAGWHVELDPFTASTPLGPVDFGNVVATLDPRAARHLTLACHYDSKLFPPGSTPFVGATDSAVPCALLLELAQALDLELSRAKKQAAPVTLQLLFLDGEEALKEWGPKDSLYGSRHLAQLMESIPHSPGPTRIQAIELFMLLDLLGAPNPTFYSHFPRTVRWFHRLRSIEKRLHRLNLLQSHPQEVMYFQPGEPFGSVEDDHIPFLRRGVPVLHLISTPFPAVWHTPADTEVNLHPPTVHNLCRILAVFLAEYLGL
UniProt Q9NXS2, 48-382 I73N/C369A: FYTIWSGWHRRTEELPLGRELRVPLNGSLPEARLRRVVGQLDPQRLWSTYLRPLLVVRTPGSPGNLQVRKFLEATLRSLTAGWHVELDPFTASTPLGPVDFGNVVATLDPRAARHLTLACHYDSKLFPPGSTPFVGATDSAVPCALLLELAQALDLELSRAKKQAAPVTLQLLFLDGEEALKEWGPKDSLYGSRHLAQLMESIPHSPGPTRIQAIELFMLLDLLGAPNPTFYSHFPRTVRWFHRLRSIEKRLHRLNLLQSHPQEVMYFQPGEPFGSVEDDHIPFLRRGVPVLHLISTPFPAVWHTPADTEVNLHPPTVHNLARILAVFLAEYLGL

Test [2] addresses human isoQC (Homo sapiens, UniProt Q9NXS2, C369A/I73N). Described as above. The class given is biochemical. Set-up: The cDNA of the mature human isoQC starting with codon 30 (counting from methionine II); His6 (C-His) (C); yeast alpha-factor secretion signal (YSS) (N); made in house; host or cells: Pichia pastoris X-33. Conditions: human isoQC expressed in P. pastoris (YSShisoQC). How it is done:
as §1, §2, §3

The Km is the substrate concentration at which the rate is half of its maximum. For the molecule `C[C@H](NC(=O)[C@H](Cc1ccc(O)cc1)NC(=O)[C@@H](N)CCC(N)=O)C(=O)O` [QYA], the Km was found to be 0.22 ± 0.01 mM on human isoQC [1] and 0.08 ± 0.022 mM at human isoQC [2].

The record behind these values is US8889709B2, “Use of isoQC inhibitors in the treatment and prevention of inflammatory diseases or conditions” (Probiodrug AG, priority 2006, dated 2014).
